The target in the experiment is Human immunodeficiency virus type 1 integrase (Human immunodeficiency virus 1, UniProt Q7ZJM1). Nature of the experiment: Inhibition of Integrase catalyzed strand transfer (ST) as measured in an in vitro assay.

For orientation: IC50 means the concentration at which inhibition is half-maximal. A lower IC50 goes with inhibition by little substance. Molecule `O=C(O)C(=O)CC(=O)c1ccccc1` displayed an IC50 of 25 µM. In other words, the double-digit micromolar range.

The values above are taken from ChEMBL document CHEMBL1147595, “Design and synthesis of photoactivatable aryl diketo acid-containing HIV-1 integrase inhibitors as potential affinity probes” (Bioorg Med Chem Lett, 2004).
